The list shows a part of the results, in another mix than the full data. Calls of active or inactive are those of the source.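 How the source made its calls: active means activation at 10 µM reaching about 35% in either raw or pattern-adjusted values (limit read from the data); inactive means the rest.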

Sequences of proteins named here, by UniProt entry; tags and fusion partners are left off.
UniProt P20594, whole entry: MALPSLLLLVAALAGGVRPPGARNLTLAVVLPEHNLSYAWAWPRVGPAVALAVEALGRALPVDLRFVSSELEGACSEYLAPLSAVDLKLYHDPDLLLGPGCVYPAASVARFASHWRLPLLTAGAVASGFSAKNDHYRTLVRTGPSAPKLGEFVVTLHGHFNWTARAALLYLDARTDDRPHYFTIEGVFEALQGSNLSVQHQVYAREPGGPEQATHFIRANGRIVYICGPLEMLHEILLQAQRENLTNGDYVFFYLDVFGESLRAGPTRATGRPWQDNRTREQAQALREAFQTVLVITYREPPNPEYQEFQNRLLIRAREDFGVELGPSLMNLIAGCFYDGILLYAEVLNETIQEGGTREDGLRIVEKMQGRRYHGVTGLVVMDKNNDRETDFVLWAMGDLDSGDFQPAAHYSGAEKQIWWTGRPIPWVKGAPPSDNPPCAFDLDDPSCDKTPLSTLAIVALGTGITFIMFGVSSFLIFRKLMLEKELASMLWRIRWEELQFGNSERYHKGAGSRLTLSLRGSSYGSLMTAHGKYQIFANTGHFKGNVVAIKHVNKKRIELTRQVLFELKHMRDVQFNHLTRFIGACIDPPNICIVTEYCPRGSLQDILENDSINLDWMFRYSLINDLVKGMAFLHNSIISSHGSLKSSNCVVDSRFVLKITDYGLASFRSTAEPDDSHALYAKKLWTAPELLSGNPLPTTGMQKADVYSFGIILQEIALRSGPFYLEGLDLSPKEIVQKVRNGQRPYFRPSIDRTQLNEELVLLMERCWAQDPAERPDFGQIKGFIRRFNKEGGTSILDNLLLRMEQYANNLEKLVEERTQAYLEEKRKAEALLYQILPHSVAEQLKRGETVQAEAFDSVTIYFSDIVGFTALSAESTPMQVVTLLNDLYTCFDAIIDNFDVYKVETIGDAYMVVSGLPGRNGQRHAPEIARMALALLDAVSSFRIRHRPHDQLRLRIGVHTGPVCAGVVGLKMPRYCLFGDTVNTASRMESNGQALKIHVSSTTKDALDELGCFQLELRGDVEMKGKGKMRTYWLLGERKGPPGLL

The target in this test is Atrial natriuretic peptide receptor 2 (Homo sapiens) (UniProt P20594). The test can be described thus: human GC-B receptor activators, primary screen, HEK293 GC-B cells, cGMP TR-FRET, EC30 CNP (AID 1920062). Conditions: at 10 µM, hits give high values, 0% at EC30 CNP, 100% saturating CNP. A general note: Time-resolved FRET reads energy transfer from a long-lived donor to a nearby acceptor.
In the case of `CCC(=O)N(c1ccccc1)C1(COC)CCN(CCc2cccs2)CC1`, the activation is inactive: 0.17%.
Turning to `CCC(=O)N(c1ccccc1)C1(COC)CCN(CCn2nnn(CC)c2=O)CC1`, the activation was inactive: 2.22%.

The record behind these values is PubChem BioAssay AID1920062 (Sanford-Burnham Center for Chemical Genomics, 2024).
